Source: US7196083B2, “Heteropolycyclic inhibitors of protein kinases” (priority 2000, dated 2007)

Tested on: A-549 (human lung carcinoma)
Test: [3H] thymidine uptake cell proliferation assay, A549
Format: cell-based
Conditions: read-out: Cell Proliferation in A459 IC50 in nm; A459 cells

Cc1nc2nnnn2nc1C
IC50: > 10 µM
